In article PMC6062600, “A Novel Iron Transporter SPD_1590 in Streptococcus pneumoniae Contributing to Bacterial Virulence Properties” (Frontiers in Microbiology, 2018):

Target: SPD_1590 (Streptococcus pneumoniae, UniProt A0A0H2ZNN3)
Assay: biochemical

C=CC1=C(C)C2=Cc3c(C=C)c(C)c4[n]3[Fe]([Cl])[n]3c(c(C)c(CCC(=O)O)c3=CC3=NC(=C4)C(C)=C3CCC(=O)O)=CC1=N2 [hemin]
Kd: 2410 nM
